Measurements reported in patent US20120115806A1, “Antitumor Combination Including Cabazitaxel and Capecitabine” (SANOFI, priority 2009, published 2012).

Test system: patients with metastatic breast cancer previously treated with anthracyclines and taxanes
Conditions: cabazitaxel (D1) in combination with capecitabine (twice a day, D1-14)

For “4α-acetoxy-2α-benzoyloxy-5β,20-epoxy-1β-hydroxy-β,10β-dimethoxy-9-oxotax-11-en-13α-yl (2R,3S)-3-tert-butoxycarbonylamino-2-hydroxy-3-phenylpropionate [cabazitaxel]”, the “maximal administered dose (MAD)” value was 25 mg/m^2 and the “recommended dose (RD)” value (highest dose at which less than 33% of patients exhibited a DLT) was 20 mg/m^2.
